# Membrane permeability of cyclic peptides

Data: CycPeptMPDB; original report doi:10.1002/anie.201405364.

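Conditions beyond the assay type are not listed; see the original paper. Other peptides of the study may be missing here. Entries at the database's floor value (log10 P of -10) are not listed.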

RRCK is a low-efflux MDCK cell line. EPSA is the experimental polar surface area, a chromatographic measure of exposed polarity. Permeability is in 10^-6 cm/s, converted from the database's log10 values; higher is more permeable.

The entry for CC[C@H](C)[C@@H]1NC(=O)[C@@H]2CCCN2C(=O)[C@H]([C@@H](C)CC)NC(=O)[C@@H]2CCCN2C(=O)[C@H](Cc2ccccc2)NC(=O)[C@H](C)NC(=O)[C@H](C)NC1=O lists RRCK 0.6 × 10^-6 cm/s and EPSA 77 Å2. For CC[C@H](C)[C@@H]1NC(=O)[C@@H]2CCCN2C(=O)[C@H](Cc2ccccc2)NC(=O)[C@H](C)NC(=O)c2csc(n2)[C@H]([C@@H](C)CC)NC(=O)[C@@H]2CCCN2C1=O the data give RRCK 0.71 × 10^-6 cm/s and EPSA 74 Å2.